# Experiments:
# Test in all cases: microbe, parasite or virus in culture
# [1] = system: E. coli N43 (CGSC no. 5583); details: Escherichia coli, read-out: MIC E. coli N43 (CGSC# 5583)
# [2] = system: Streptococcus agalactiae RDK 047 (QA-990/02); details: read-out: MIC S. agalactiae RDK 047 (QA-990/02)
# [3] = system: MRSA (QA-11.7); details: Staphylococcus aureus, read-out: MIC MRSA (QA-11.7)
# [4] = system: MRSA (QA-12.1); details: Staphylococcus aureus, read-out: MIC MRSA (QA-12.1)
# [5] = system: E. coli D22; details: Escherichia coli, D22, read-out: MIC E. coli D22
structure (smiles),measurement,setting,value
COc1ccc2nccc(CCN3CCC(NCc4cc(F)c(Br)c(F)c4)CC3)c2n1 [Compound 8],MIC,[1],0.016 µM
same,MIC,[2],0.509 µM
same,MIC,[3],0.016 µg/mL
same,MIC,[4],0.016 µg/mL
same,MIC,[5],0.016 µg/mL
